Screening data from PubChem BioAssay.
RAD54 inh: inhibitors of human RAD54 branch migration; RAD54 Holliday junction branch migration, FAM/BHQ fluorescence; 360,000 compounds, 0.14% hits; inhibition, % at 10.4 µM; Q92698;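 active = mean normalized replicate activity at least 40 and at least half of replicates scoring 40 or more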;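 also: 0% = median of neutral control wells and 100% = median of positive control wells; inhibitors cause a drop in the FAM fluorescence signal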
PglD inh: blocks C. jejuni PglD acetyltransferase activity | purified PglD enzyme, DTNB colorimetric CoA detection | inhibition, % at 12.5 µM | 360,000 compounds, 0.098% hits; in the data active = inhibition above about 16%, passing the limit was not always enough
Yeast UUG start: modulators of start codon recognition fidelity in yeast; S. cerevisiae UUG-firefly luciferase reporter, luminescence/redox ratio; AID 602363; 350,000 tested, 0.13% active; activity score, % at 18.7 µM;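 active = replicate mean at a twofold rise or more, about +100% in these data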;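 also: firefly luciferase made from a UUG start codon reports start codon fidelity; reporter light over untreated wells divided by growth signal over untreated wells; some hits fall short of that in this replicate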
RAD52 inh: RAD52 (human) annealing inhibition. 360,000 compounds, 0.46% hits. AID 651710. inhibition, % at 18.7 µM. recombinant RAD52 DNA annealing, FRET fluorescence;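 active = every replicate showing at least 50% inhibition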
CASP6 VEID inh: caspase-6 (human) enzyme inhibition; purified caspase-6, Z-VEID-R110 cleavage fluorescence; inhibition, % at 12.5 µM; 350,000 compounds, 0.53% hits;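 active = mean inhibition across replicates at least about 35%, with every replicate also reaching that limit, limit read from the data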;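 also: 0% = median of neutral control wells and 100% = no fluorescence left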
INS-1E GSIS act: primary screen for activators of insulin secretion dependent on glucose, INS-1E cells, GLuc reporter luminescence. AID 743287. INS-1E GLuc reporter insulin secretion, 2-3 h. 370,000 compounds, 0.61% hits. activation, % at 16.6 µM;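 active = lowest replicate activation of at least 40%, so every replicate reaches that level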;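 also: 0% = median of neutral control wells and 100% = median of IBMX positive control wells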
* = called active by the depositor; i = inactive; · = no result given; ! = repeats disagree. Compounds with a hit are over-represented: about 1.5% of the library has one in this group of screens.

SMILES	RAD54 inh	PglD inh	Yeast UUG start	RAD52 inh	CASP6 VEID inh	INS-1E GSIS act
CCCCn1c(O)c(C(C)=Nc2cccc(C(=O)O)c2)c(=O)[nH]c1=O	-29	9	-2	-29	15	2
CN1CCN(c2ccc([N+](=O)[O-])c(N/N=C3\CN4CCC3CC4)c2)CC1	70*	-13	-3	·	·	·
CCCN1[C@@H]2Cn3c(ccc(-c4ccc(OC)cc4)c3=O)[C@H]1[C@@H](C(=O)OC)[C@@H]2CO	11	-3	·	2	1	0
COC(=O)[C@H]1[C@H](CO)[C@H]2Cn3c(ccc(-c4ccccc4F)c3=O)[C@@H]1N2Cc1ccncc1	6	2	·	123*	-2	5
CCCN1[C@@H]2c3ccc(-c4ccc(F)cc4)c(=O)n3C[C@H]1[C@H](CO)[C@H]2C(=O)OC	3	0	·	57*	0	5
COC(=O)[C@@H]1[C@@H](CO)[C@@H]2Cn3c(ccc(-c4ccccc4F)c3=O)[C@H]1N2Cc1ccncc1	18	0	·	107*	-1	21
CCOC(=O)[C@]12Cc3ccccc3[C@H]1N(C(C)C)C(=O)c1ccccc12	·	·	·	-14	4	-5
O=C(Cc1ccccn1)N1CCCCN2[C@H](C1)[C@@H](c1ccc(-c3ccccc3F)cc1)[C@@H]2CO	1	1	-1	-7	-4	13
C[C@]12CC[C@@H]3c4ccc(O)c(O)c4CC[C@H]3[C@@H]1CC[C@@H]2O	-4	-2	-11	-3	5	·
O=C(Cn1c(=O)n(CC2CS2)c2ccccc21)N1CCCCCC1 (centres undefined)	·	·	·	-2	1	-2
C=C(C)Cn1c(=O)n(CC2CS2)c2ccccc21 (centres undefined)	·	·	·	·	·	69*
CNc1cc(Cl)c2nonc2c1[N+](=O)[O-]	·	·	·	-6	11	51*
O=C1C(=O)c2ccccc2-c2ccccc21	3	-2	0	5	54*	-18
O=C1C(=O)c2cccc3cccc1c23	·	·	·	-7	0	-8
O=C1CC=C2C3CC4N(CCC45c4cc(O)c(O)cc4N1C25)CC3=CCBr (centres undefined)	·	·	·	33	7	2
O=C(O)c1ccc([N+](=O)[O-])c([N+](=O)[O-])c1	10	3	-14	-11	41*	-1
COC(=O)CCCC(NC(=S)N1CC2C[C@@H](C1)Cn1c2cccc1=O)C(=O)OC (some centres undefined)	-6	4	-22	-3	-1	40*
CC(=O)NC1=C(N2CC2C)C(=O)C(NC(C)=O)=C(N2CC2C)C1=O (centres undefined)	-5	1	12	-19	38*	10
CCCC(=O)NC1=C(N2CC2)C(=O)C(NC(=O)CCC)=C(N2CC2)C1=O	-5	-3	11	-12	21	·
O=P(NC(c1ccccc1)c1ccccc1)(Oc1ccccc1)Oc1ccccc1	-7	·	-12	·	·	40*
CCOC(=O)C1C(=O)N(C)C2(C)CC1c1cc(OC)ccc1O2 (centres undefined)	-11	0	14	·	·	·
C/C=C/c1ccc(C2[C@@H]3CN(C(=O)CN(C)C)C[C@H]2N3)cc1 (some centres undefined)	·	·	·	58*!	-1	6
COc1ccc(/C=C2\C(=O)NC(=S)N(C)C2=O)cc1C	·	·	·	-45	46*	2
Cc1ccsc1/C=C1\C(=O)NC(=S)N(C)C1=O	-2	-1	-32	-51	5	2
O=C1NC(=O)N(c2ccccc2)C(=O)/C1=C/C=C/c1ccco1	-15	-4	-1	-128	21	-9

Compound profiles, as listed above. Order of screens: RAD54 inh	PglD inh	Yeast UUG start	RAD52 inh	CASP6 VEID inh	INS-1E GSIS act
Record of CC(=O)NC1=C(N2CC2C)C(=O)C(NC(C)=O)=C(N2CC2C)C1=O (centres undefined) = -5	1	12	-19	38*	10
Record of C=C(C)Cn1c(=O)n(CC2CS2)c2ccccc21 (centres undefined) = ·	·	·	·	·	69*
Record of COC(=O)CCCC(NC(=S)N1CC2C[C@@H](C1)Cn1c2cccc1=O)C(=O)OC (some centres undefined) = -6	4	-22	-3	-1	40*
Record of CN1CCN(c2ccc([N+](=O)[O-])c(N/N=C3\CN4CCC3CC4)c2)CC1 = 70*	-13	-3	·	·	·

More records follow.
SMILES	RAD54 inh	PglD inh	Yeast UUG start	RAD52 inh	CASP6 VEID inh	INS-1E GSIS act
Cc1ccc(N2C(=O)NC(=O)/C(=C\C=C\c3ccco3)C2=O)cc1C	-28	-7	0	-85	38*	-7
O=C1NC(=O)N(Cc2ccccc2)C(=O)/C1=C\C=C\c1ccco1	-7	0	-8	-144	60*	-1
CN1C(=O)/C(=C/C=C/c2ccco2)C(=O)NC1=S	·	·	·	i	76*	12
O=C1NC(=O)N(Cc2ccco2)C(=O)/C1=C/C=C/c1ccco1	·	·	·	-158	88*	·
NC(Cc1ccccc1)c1nc(-c2ccccc2)no1 (centres undefined)	-4	-2	-6	-23	-6	3
O=C(CN1CC(c2ccccc2)CC1=O)Nc1ccc(F)cc1 (centres undefined)	-3	1	-8	-13	5	-7
